Results on one compound are retold here after ChEMBL document CHEMBL3352089 (J Med Chem, 2014).

Format in all cases: cell-based
Common to all, as to settings: read-out: Activity

Series [1] can be described thus: Cytotoxicity against human HepG2 cells assessed as cell viability at 1 uM after 4 hrs by Cell-Titer Glo assay.
Series [2] can be described thus: Cytotoxicity against human HepG2 cells assessed as cell viability at 1 uM after 24 hrs by Cell-Titer Glo assay.
The nature of series [3]: Cytotoxicity against human HepG2 cells assessed as cell viability at 10 uM after 4 hrs by Cell-Titer Glo assay.
Series [4] is described as follows: Cytotoxicity against human HepG2 cells assessed as cell viability at 100 uM after 4 hrs by Cell-Titer Glo assay.

Where only a bound is given, the exact number is not on record here.

Turning to `Cc1ccc(NC(=O)c2ccc(CN3CCN(C)CC3)cc2)cc1Nc1nccc(-c2cccnc2)n1` [IMATINIB], in series [1], the viability at 4 h, 1 µM was more than 75%. Besides, the viability at 24 h, 1 µM in series [2] was more than 75%. Also, the viability at 4 h, 10 µM in series [3] is more than 75%. Besides, the viability at 4 h, 100 µM in series [4] stood at 75%.
